Here are results for 1 substance from patent US20090215723A1, “Organic silicic acids complex for therapeutic and cosmetic applications” (priority 2005, published 2009).

The conditions of series [1]: without stabilizer.
For series [2] the following is noted: cited from earlier work.
For series [3] the following is noted: at 25° C.; cited from earlier work.
For series [4] the following is noted: higher concentrations polymerize; cited from earlier work.

Take orthosilicic acid: the “concentration until which it is relatively stable in solution” value in series [1] was “about 1 mg/100 mL”. Further, in series [2] (above pH 9.0, silicic acid ionized), the “solubility above pH 9.0” value is given as “solubility increases quickly”. Moreover, in series [2] (pure water), the “solubility in pure water” value is listed as “slightly soluble”. Also, in series [3], the pK1 is recorded as 9.8 and the pK2 was 12. The “concentration below which the monomer is relatively stable” value in series [4] is recorded as < 10^−4 M.
